The values below come from EP1685248B1, “OXIDOREDUCTASE FROM METSCHNIKOWIA ZOBELLII” (IEP GmbH, priority 2003, dated 2005).

Structures are written as SMILES.

The test system of this experiment is Oxidoreduktase aus Metschnikowia zobellii. In words: Substrate spectrum (relative enzyme activity, standard assay of Example 5.1). Format: biochemical. To be noted: activity with 2-Oxo-4-phenyl-buttersäureethylester set to 100%; NADPH; 25 °C.

With `CCOC(=O)C(=O)CBr`, the “Relative Aktivität %” value was 28%.
